One compound from paper PMC4151564 (Journal of medicinal chemistry, 2011) can be followed below.

The chains behind the UniProt entries cited, without tags or fusion partners. Where a name states a change or a piece, a line headed by the entry shows the natural chain unless it says otherwise.
UniProt P11388: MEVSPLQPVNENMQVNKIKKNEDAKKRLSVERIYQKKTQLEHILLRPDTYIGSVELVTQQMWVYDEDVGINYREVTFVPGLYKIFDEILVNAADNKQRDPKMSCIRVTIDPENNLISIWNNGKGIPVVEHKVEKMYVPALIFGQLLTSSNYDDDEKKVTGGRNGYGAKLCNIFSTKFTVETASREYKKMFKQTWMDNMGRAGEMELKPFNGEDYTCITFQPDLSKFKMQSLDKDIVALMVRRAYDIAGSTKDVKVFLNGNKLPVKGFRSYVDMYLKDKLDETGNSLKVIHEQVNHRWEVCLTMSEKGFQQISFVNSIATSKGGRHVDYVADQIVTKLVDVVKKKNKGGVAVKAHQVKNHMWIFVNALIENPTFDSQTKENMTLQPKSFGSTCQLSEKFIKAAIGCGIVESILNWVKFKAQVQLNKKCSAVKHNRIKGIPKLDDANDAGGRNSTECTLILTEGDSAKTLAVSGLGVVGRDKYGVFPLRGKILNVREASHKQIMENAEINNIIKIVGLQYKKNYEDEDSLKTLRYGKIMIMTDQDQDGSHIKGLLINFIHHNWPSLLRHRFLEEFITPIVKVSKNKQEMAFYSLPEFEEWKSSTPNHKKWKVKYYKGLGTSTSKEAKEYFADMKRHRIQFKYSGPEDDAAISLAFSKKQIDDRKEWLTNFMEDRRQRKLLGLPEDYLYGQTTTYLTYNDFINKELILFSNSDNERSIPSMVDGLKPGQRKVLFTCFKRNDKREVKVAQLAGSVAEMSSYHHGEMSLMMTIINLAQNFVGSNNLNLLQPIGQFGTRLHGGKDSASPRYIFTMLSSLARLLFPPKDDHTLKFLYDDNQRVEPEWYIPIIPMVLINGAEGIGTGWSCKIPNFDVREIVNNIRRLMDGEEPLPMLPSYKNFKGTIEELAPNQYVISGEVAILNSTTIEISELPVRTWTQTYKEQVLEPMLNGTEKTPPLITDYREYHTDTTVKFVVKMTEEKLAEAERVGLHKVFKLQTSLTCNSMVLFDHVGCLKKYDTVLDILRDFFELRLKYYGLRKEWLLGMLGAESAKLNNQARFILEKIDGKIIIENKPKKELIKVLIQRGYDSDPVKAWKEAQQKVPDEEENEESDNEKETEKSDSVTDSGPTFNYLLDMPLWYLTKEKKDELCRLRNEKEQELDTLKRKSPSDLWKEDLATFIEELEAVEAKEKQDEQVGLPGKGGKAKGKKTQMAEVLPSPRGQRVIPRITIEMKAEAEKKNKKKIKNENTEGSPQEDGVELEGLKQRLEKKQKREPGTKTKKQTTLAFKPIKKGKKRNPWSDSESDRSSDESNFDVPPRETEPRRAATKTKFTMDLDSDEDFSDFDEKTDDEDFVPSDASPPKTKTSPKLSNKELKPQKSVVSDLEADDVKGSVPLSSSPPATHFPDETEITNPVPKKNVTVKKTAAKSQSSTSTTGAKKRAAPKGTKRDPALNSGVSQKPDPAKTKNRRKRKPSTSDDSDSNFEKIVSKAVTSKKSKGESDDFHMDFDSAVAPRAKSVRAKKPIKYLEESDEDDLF

The assay addresses eukaryotic topoisomerase IIα (Homo sapiens, UniProt P11388). Put plainly: Gel-based Topo-IIα inhibition mechanism assay. It counts as biochemical. Conditions: 500 μM inhibitor, 4 units enzyme.

Structures are written as SMILES.

Turning to `COc1cc([C@@H]2c3cc4c(cc3[C@@H](O[C@@H]3O[C@@H]5CO[C@@H](C)O[C@H]5[C@H](O)[C@H]3O)[C@H]3COC(=O)[C@H]23)OCO4)cc(OC)c1O` [etoposide], the “Topo-IIα inhibition mechanism (formation of linear DNA)” value is recorded as “produce discrete bands of linear DNA”.
